Experiments:
[1] = target: T1, human H3 receptor (Homo sapiens, UniProt Q9Y5N1); assay: Human H3 radioligand binding ([3H]-N-alpha-methylhistamine, CHO cell membranes, SPA); conditions: Table B, binding constant as letter class
T1 construct: expressed in transfected cells
Experimental: (§1) Cell pellets were resuspended in 5 mM Tris-HCl, pH 7.5 with […] and a cocktail of protease inhibitors (Complete Protease Inhibition Tablets, Roche Diagnostics). Cells were disrupted using a polytron cell homogenizer and the suspension was centrifuged at 1000×g for 10 minutes at 4° C. The pellet was discarded and the supernatant centrifuged at 40,000×g for 30 min at 4° C. This membrane pellet was washed in membrane buffer containing 50 mM Tris-HCl, pH 7.5 with 0.6 mM EDTA, 5 mM MgCl2 and protease inhibitors, recentrifuged as above and the final pellet resuspended in membrane buffer plus 250 mM sucrose and frozen at −80° C.
Membranes were resuspended in 50 mM Tris HCl (pH 7.4), 5 mM MgCl2, 0.1% BSA. The membrane suspensions (10 μg protein per well) were incubated in a 96 well microtiter plate with [^3H]-N-alpha-methylhistamine (approximately 1 nM final concentration), test compounds at various concentrations (0.01 nM-30 μM) and scintillation proximity beads (Perkin Elmer, FlashBlueGPCR Scintillating Beads) in a final volume of 80 μl for 4 hours at room temperature, protected from light. Non-specific binding was determined in the presence of 10 μM clobenpropit. Radioligand bound to receptor, and therefore in proximity to the scintillation beads, was measured using a MicroBeta scintillation counter.

The chains behind the UniProt entries cited, without tags or fusion partners. Where a name states a change or a piece, a line headed by the entry shows the natural chain unless it says otherwise.
UniProt Q9Y5N1: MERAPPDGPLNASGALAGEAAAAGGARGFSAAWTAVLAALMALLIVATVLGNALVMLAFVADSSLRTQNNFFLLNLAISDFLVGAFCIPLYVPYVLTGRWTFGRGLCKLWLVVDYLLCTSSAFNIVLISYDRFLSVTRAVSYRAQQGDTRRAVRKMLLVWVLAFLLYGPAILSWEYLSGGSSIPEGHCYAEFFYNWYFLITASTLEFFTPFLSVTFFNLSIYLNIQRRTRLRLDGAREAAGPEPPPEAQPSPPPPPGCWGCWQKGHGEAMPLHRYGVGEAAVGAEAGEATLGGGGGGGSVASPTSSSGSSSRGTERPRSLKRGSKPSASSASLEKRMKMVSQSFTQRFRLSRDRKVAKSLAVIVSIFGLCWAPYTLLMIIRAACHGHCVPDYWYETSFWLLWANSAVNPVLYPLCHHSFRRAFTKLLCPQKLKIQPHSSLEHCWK
UniProt Q9QYN8: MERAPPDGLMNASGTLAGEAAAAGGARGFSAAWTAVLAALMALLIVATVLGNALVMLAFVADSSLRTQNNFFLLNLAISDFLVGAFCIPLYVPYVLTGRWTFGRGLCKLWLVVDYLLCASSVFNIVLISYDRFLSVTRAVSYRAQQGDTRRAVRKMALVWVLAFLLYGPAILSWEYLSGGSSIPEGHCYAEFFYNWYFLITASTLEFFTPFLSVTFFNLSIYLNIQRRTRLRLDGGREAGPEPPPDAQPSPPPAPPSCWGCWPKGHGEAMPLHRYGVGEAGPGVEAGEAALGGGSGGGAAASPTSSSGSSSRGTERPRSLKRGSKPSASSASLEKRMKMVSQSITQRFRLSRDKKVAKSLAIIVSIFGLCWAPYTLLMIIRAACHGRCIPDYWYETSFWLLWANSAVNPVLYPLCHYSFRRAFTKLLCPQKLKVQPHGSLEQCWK

[2] = target: T2, rat histamine H3 receptor (Rattus norvegicus, UniProt Q9QYN8); assay: Rat H3 radioligand binding ([3H]-N-alpha-methylhistamine, CHO-A3 cell membranes, SPA); conditions: Table B, binding constant as letter class
T2 construct: encoding the entire 445-amino-acid rat histamine H3 receptor; expressed in transfected cells
Experimental: as §1, with “This was engineered into the pIRES-neo3 mammalian expression vector, which was stably transfected into the CHO-A3 cell line (Euroscreen, Belgium), followed by clonal selection by limiting dilution. Cells were harvested and cell pellets were frozen (−80° C.). Cell pellets” for “Cell pellets”
Membranes were resuspended in 50 mM Tris HCl (pH 7.4), 5 mM MgCl2, 0.1% BSA. […] Non-specific binding was determined in the presence of 10 μM clobenpropit. Radioligand bound to receptor, and therefore in proximity to the scintillation beads, was measured using a MicroBeta scintillation counter.

Row | Ki [1] | Ki [2] | Compound
1 | 0.0001 to 0.1 µM | 0.0001 to 0.1 µM | C[C@@H]1CCCN1CCCOc1ccc(-c2cnn(-c3ccccn3)c(=O)c2)cc1 [Example 94, 5-{4-[3-((R)-2-Methyl-pyrrolidin-1-yl)-propoxy]-phenyl}-2-pyridin-2-yl-2H-pyridazin-3-one]
2 | 0.0001 to 0.1 µM | 0.0001 to 0.1 µM | C[C@H]1CCCN1CCCOc1ccc(-c2cnn(-c3ccccn3)c(=O)c2)cc1 [Example 109, 5-{4-[3-((S)-2-Methyl-pyrrolidin-1-yl)-propoxy]-phenyl}-2-pyridin-2-yl-2H-pyridazin-3-one]

Reference: patent US8586588B2, “Aryl pyridazinone derivatives and their use as H3 receptor ligands” (Cephalon, Inc., priority 2006, dated 2013)
